Target: 5-hydroxytryptamine receptor 3A (Rattus norvegicus, UniProt P35563)
Assay: Response at rat 5-hydroxytryptamine 3a receptor expressed in xenopus oocytes
Format: functional, cell-based, Oocyte

By UniProt entry, the sequences of proteins in these tests, tags left out.
UniProt P35563, whole entry: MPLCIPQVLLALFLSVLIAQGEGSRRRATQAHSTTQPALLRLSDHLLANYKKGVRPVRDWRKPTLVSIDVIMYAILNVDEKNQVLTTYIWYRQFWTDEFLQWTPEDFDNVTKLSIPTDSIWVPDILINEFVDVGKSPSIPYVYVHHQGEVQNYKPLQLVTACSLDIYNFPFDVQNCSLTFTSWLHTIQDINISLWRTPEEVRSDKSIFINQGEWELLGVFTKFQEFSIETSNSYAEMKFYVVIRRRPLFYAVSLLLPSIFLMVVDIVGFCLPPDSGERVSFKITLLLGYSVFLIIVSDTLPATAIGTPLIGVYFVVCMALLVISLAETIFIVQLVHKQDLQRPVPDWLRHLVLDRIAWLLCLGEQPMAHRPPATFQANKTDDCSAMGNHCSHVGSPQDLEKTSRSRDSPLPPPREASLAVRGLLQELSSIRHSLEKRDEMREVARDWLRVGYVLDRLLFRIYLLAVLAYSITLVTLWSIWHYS

NCCc1c[nH]c2ccc(O)cc12 [SEROTONIN]
EC50: 12 µM
